From patent US6365373

Tests used:
[1] = target: human trkA receptor immunoadhesin (trkA extracellular domain fused to immunoglobulin constant domains), human, P04629 33-423
[2] = target: human trkC receptor immunoadhesin (trkC extracellular domain fused to immunoglobulin constant domains), human, Q16288 32-429

For NGFR4, the IC50mut/IC50NGF [1] was 1.5, the IC50mut/IC50NGF12 [2] was 1 and the IC50mut/IC50NT-3 [2] was 14.8.
